According to publication PMC12362587, “Untargeted Diversity-Oriented Synthesis for the Discovery of New Antitumor Agents: An Integrated Approach of Inverse Virtual Screening, Bioinformatics, and Omics for Target Deconvolution” (Journal of Medicinal Chemistry, 2025):

Assays:
BRD4(BD1) = target: T1, BRD4(BD1) (Homo sapiens, UniProt O60885); assay: BRD4 (BD1) Inhibitor Screening Assay Kit (AlphaScreen); type: binding; settings: compound 10 μM, triplicate
T1 construct: purchased BPS Bioscience (printed as 'BSP') 32514
Experimental: The activity of synthesized compounds against BRD4 was measured by AlphaScreen assay using BRD4(BD1) Inhibitor Screening Assay Kit (BSP-32514) as reported before. ,
Compounds were first tested in triplicate at a concentration of 10 μM, using (+)-JQ1 as reference compound.
Briefly, compounds 31, 63, or (+)-JQ1 (as reference compound) or DMSO (2%) were preincubated with BRD4(BD1) protein and histone H4(1–21)-K5/8/12/16Ac-BiotinOH at room temperature for 30 min. After that, 10 μL of acceptor and donor beads (250-fold diluted) were added, protecting them from light. The results were measured 60 min later using the Enspire microplate analyzer (PerkinElmer, California, USA). Each compound was tested in triplicate, and GraphPad Prism (version 8.0) was used to analyze the data, employing the equation log(inhibitor) vs normalized response-variable slope

[1] = target: histone H4(1-21)K5/8/12/16Ac-BiotinOH (UniProt P62805); assay: AlphaScreen or HTRF; as a1, with compound 31 at 10 uM, in triplicate; residual binding in percent
[2] = target: histone H4(1-21)K5/8/12/16Ac-BiotinOH (UniProt P62805); assay: AlphaScreen or HTRF; as a1, with compound 63 at 10 uM, in triplicate; residual binding in percent

Question: With `CC(C)C[C@@H](C(=O)OCc1ccccc1)N1Cc2ccccc2NC1=O` [Compound 63, Benzyl (S)-4-Methyl-2-(2-oxo-1,4-dihydroquinazolin-3(2H)-yl)pentanoate] as the molecule, how does the “residual BRD4 binding to acetylated H4” value (BRD4(BD1)) read?
Answer: Its value is 6.52 ± 2.96%.

Question: For “Bromodomain-containing protein 4, first bromodomain, BRD4(BD1) (domain or fragment)”, which residual binding with 10 uM compound 31 [1] is on record?
Answer: Its residual binding with 10 uM compound 31 is 24.2%.

Question: What about the residual binding with 10 uM compound 63 [2] of the same molecule?
Answer: The residual binding with 10 uM compound 63 was 6.52%.

Question: How did the “residual BRD4 binding to acetylated H4” value (BRD4(BD1)) turn out when `CC(C)C[C@H]1C(=O)N(Cc2ccc(C(F)(F)F)cc2)c2ccccc2C(=O)N1Cc1ccc(C(F)(F)F)cc1` [Compound 31, (S)-3-Isobutyl-1,4-bis(4-(trifluoromethyl)benzyl)-3,4-dihydro-1H-benzo[e][1,4]diazepine-2,5-dione] was run?
Answer: The value was 24.17 ± 0.03%.
